# System: bumblebee GI tract
# Test: fluorescent tracking of digested PIMs in bumblebee GI tracts
# Assay type: in vivo, Bombus impatiens
# Experimental: FIGS. 4A-4B. Tracking of digested PIMs by fluorescent imaging of bumblebee GI tracts. […] Microparticle morphology was clearly visible and microparticles were successfully drawn into the midgut (n=3; relatively brighter background at 1 and 12 h was probably due to protein leakage during digestion).
# To understand the protective properties and stability of PIMs, bees were fed PIMs loaded with a FITC-labelled protein, human serum albumin (HSA-PIMs). Fluorescent imaging confirmed almost complete extraction of PIMs out of the crop stomach by 1 hour and their stability throughout digestion for 12 hours. This versatile, scalable, low-cost detoxification strategy can act as a precautionary or remedial measure for managed pollinators when pollinating in areas of organophosphate application, to address the issue of pollinator exposures.
# In vivo characterizations of PIMs. […] This is significant because OPs are often found in high quantities in pollen, which may be held in the posterior section of the ventriculus for digestion for up to 12 h or more. The degree of fluorescence was not able to be quantified because FITC fluorescence is pH dependent; the presence of microparticles would have altered stomach pH to the point where fluorescence readings would have been inaccurate.
substance,measurement,setting,value
"free FITC-HSA: FITC-labelled human serum albumin, not encapsulated",GI distribution at 1 hour,1 hour after 30 min feeding,a large amount was observed in crop stomach
same,GI distribution at 4 hours,4 hours,most of the fluorescence was located in the ventriculus

# Reference: patent US12041939B2, “Enzyme-loaded pollen-mimicking microparticles for organophosphate detoxification of insect pollinators” (priority 2020, dated 2024)
